This data set can be described thus: Solubility in water. As to conditions: for dosing solutions.

Consider `C[C@H](CNC(=O)[C@H]1N=C(c2cccc(O)c2O)O[C@@H]1C)C(=O)N[C@@H]1CCCN(O)C1=O` [L-654,040, 2-(2,3-dihydroxyphenyl)-4,5-dihydro-N-[3-[(1-hydroxy-2-oxo-3(R)-piperidinyl)-amino]-2(R)-methyl-3-oxopropyl]-5R-methyl-4S-oxazolecarboxamide], for which the solubility in water result was “prior heating of L-654,040 in a boiling water bath was necessary for solubility”.

The values above are taken from patent US4956294A, “Culture of Streptoverticillium synroense for producing an antibacterial” (Merck & Co., Inc., priority 1989, dated 1990).
